Experimental data from patent US20140200332 (published 2014).

Protein sequences, listed by entry. Tags and fused reporters are not part of them. Residues count along the entry.
UniProt P01375, 77-233: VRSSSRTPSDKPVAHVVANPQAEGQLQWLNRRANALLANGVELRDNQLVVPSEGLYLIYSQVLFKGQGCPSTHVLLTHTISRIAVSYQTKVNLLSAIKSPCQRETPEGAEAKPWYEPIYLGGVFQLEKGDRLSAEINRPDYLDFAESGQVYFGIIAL

Molecular target: human TNF (human, UniProt P01375)
Assay: SPR

Kd: 0.0945 nM
B1: Remicade (infliximab) (antibody, V domains shown)
VH: EVKLEESGGGLVQPGGSMKLSCVASGFIFSNHWMNWVRQSPEKGLEWVAEIRSKSINSATHYAESVKGRFTISRDDSKSAVYLQMTDLRTEDTGVYYCSRNYYGSTYDYWGQGTTLTVSS
VL: DILLTQSPAILSVSPGERVSFSCRASQFVGSSIHWYQQRTNGSPRLLIKYASESMSGIPSRFSGSGSGTDFTLSINTVESEDIADYYCQQSHSWPFTFGSGTNLEVKR
